Test [1] addresses recombinant human glycosylated IL-17A (produced in-house in HEK EBNA cells) (human) (UniProt Q16552). The test is described as follows: cell-based or functional assay.
The target of test [2] is human TNFα (human) (UniProt P01375). In words: cell-based or functional assay.
Test [3] concerns the target recombinant Cynomolgus TNFα (Cynomolgus) (UniProt P79337). The test is described as follows: SPR, BIAcore T200, construct captured by anti-human IgG Fc antibody, antigen injected. Background: In SPR one partner is held on a chip, and binding of the other changes the refractive index at the surface.
The target in test [4] is recombinant human glycosylated IL-17A (produced in-house in HEK EBNA cells) (human) (UniProt Q16552). The description is as above.
The target in test [5] is recombinant Cynomolgus glycosylated IL-17A (Cynomolgus). The test is described as above.
Test [6] concerns the target human TNFα (human) (UniProt P01375). The test is described as above.

Chains of the proteins cited; added tags and fusions are not shown. Residues count along the entry.
UniProt Q16552, 24-155: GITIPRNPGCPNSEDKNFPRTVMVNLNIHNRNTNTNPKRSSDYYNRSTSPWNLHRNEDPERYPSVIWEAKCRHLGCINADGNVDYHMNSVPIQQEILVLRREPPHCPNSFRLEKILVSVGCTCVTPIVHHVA
UniProt P01375, 77-233 limits assumed: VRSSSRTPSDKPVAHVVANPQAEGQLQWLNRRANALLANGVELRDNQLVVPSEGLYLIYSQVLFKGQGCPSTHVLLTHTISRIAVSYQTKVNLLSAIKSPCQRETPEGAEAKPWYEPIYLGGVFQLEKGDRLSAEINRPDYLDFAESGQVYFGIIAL
UniProt P79337, 77-233 limits assumed: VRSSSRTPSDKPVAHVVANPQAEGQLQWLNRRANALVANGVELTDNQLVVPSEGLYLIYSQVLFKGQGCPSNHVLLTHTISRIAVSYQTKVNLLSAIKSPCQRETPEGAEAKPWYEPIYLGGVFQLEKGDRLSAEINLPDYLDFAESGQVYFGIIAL

Experimental findings from patent US20150322125A1 are described below.

pKd: −log10 of the molar value.

For orientation: pKd means −log10 of the Kd, conventionally taken in molar units. On to “LC11L5-B06, bispecific anti-IL-17A/TNFα antibody-Fynomer fusion (bispecific antibody)”, for which, in test [1], the Apparent IC50 value (pM) for simultaneous inhibition of IL-17A and TNFα; Gro-α release by HT-29 cells stimulated with 400 pM IL-17A and 200 pM TNFα stood at 247 pM; the IC50 value (pM) for inhibition of IL-17A; IL-6 release by NHDF cells stimulated with 64 pM IL-17A and 10 fM IL-1β stood at 121 pM. Moreover, in test [2], the Apparent IC50 value (pM) for simultaneous inhibition of IL-17A and TNFα; Gro-α release by HT-29 cells stimulated with 400 pM IL-17A and 200 pM TNFα was 247 pM. The pKd in test [3] is 9.92.
For the substance “LC11L5-B06, bispecific anti-IL-17A/TNFα antibody-Fynomer fusion (bispecific antibody; other documents disagree on this pair)”, the pKd in test [4] was 10.36; in test [5] it was 10.20; in test [6], 9.84.
For the substance “LC11L9-C09, bispecific anti-IL-17A/TNFα antibody-Fynomer fusion (bispecific antibody)”, the Apparent IC50 value (pM) for simultaneous inhibition of IL-17A and TNFα; Gro-α release by HT-29 cells stimulated with 400 pM IL-17A and 200 pM TNFα in test [1] and in test [2] was 222 pM each time. Also, the IC50 value (pM) for inhibition of IL-17A; IL-6 release by NHDF cells stimulated with 64 pM IL-17A and 10 fM IL-1β in test [1] worked out at 66 pM. Besides, the pKd in test [3] is 9.88.
For “LC11L9-C09, bispecific anti-IL-17A/TNFα antibody-Fynomer fusion (bispecific antibody; other documents disagree on this pair)”, the pKd is 10.32 in test [4], 10.15 in test [5] and 10.05 in test [6].
